Chains of the proteins cited; added tags and fusions are not shown. Residues count along the entry.
UniProt P36544, 23-502 limits assumed: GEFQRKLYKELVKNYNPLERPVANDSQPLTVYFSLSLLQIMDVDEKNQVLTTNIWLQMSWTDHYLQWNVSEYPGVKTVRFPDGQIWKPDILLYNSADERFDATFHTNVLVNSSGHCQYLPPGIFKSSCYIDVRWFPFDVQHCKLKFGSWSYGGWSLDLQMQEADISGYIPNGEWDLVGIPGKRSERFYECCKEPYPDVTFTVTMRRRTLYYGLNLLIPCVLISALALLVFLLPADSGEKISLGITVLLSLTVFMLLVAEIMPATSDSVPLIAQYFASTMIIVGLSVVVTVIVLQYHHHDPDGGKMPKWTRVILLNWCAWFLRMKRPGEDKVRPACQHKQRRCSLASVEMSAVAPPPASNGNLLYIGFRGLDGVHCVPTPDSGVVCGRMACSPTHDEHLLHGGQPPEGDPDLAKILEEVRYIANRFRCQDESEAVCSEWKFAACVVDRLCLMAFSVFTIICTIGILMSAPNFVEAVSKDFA

In US8143419B2, “Trisubstituted 1,2,4-triazoles” (Janssen Pharmaceutica N. V., priority 2006, dated 2012):

Biological target: hα7-wt nAChR (Homo sapiens, UniProt P36544)
Test: Ca2+ flux imaging (FDSS) (Protocol B), PAM activity with choline as agonist
Procedure: • Hanks buffered saline solution (HBSS, Invitrogen, Belgium), supplemented with 10 mM HEPES (Invitrogen, Belgium), CaCl2 to a final concentration of 5 mM, 0.1% Bovine serum albumin (Sigma-Aldrich NV, Belgium). b) Calcium-Sensitive Dye—Fluo-4AM • Fluo-4AM (Molecular Probes, USA) was dissolved in DMSO containing 10% Pluronic acid (Molecular Probes, USA) to give a stock solution which was diluted in assay buffer supplemented with 5 mM probenicid (Sigma, Aldrich NV, Belgium) to give a final concentration of 2 μM. c) 384-Well Plates • Black 384 well plate black/clear plates, PDL pre-coated (Corning, Incorporated, USA) d) Calcium Flux Measurement
A Functional drug screening system (FDSS, Hamamatsu) was used to measure intracellular free-calcium flux signals. […]
PAM activity was detected in real time by applying the compounds to be tested to the loaded cells along with a α7 nicotinic receptor agonist during constant monitoring of cellular fluorescence in a FDSS. […]
A control response to choline was calculated on each plate from the difference in peak in fluorescence in wells receiving either choline or assay buffer alone. […] The compounds also have a potentiating effect on the response to choline when measured by whole-cell patch clamp electrophysiology in GH4C1 cells stably over-expressing the human wild-type α7 receptor.

For `Cc1cc(C(=O)NCCn2nc(Nc3ccc(F)c(C(F)(F)F)c3)nc2-c2ccnc(Cl)c2)no1`, which “% efficacy” value is on record?
The value was 735%.

And the pEC50 ("<5" = no top plateau at maximal concentration)?
Its pEC50 is 6.0.
